# Cyclic peptide permeability, from CycPeptMPDB

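Conditions beyond the assay type are not listed; see the original paper. The list need not hold all peptides of the study. Peptides that the database sets to -10, its floor, are left out.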

PAMPA is the parallel artificial membrane permeability assay, which has no cells and reads passive diffusion. P is given in units of 10^-6 cm/s (from log10 values with two decimals); larger means faster passage.

PAMPA (10^-6 cm/s) | SMILES
11 | CC(C)C[C@@H]1C(=O)N2CCC[C@H]2C(=O)N[C@H](CC(C)C)C(=O)N[C@@H](Cc2ccccc2)C(=O)N(C)[C@H](C)C(=O)N[C@H](CC(C)C)C(=O)N1C
4.3 | CC(C)C[C@@H]1NC(=O)[C@H](CC(C)C)N(C)C(=O)C[C@H](Cc2ccccc2)NC(=O)[C@H]2CCCN2C(=O)[C@H](Cc2ccccc2)NC(=O)[C@H](CC(C)C)N(C)C(=O)[C@H]2CCCN2C1=O
6.9 | CC(C)C[C@@H]1NC(=O)[C@@H](CC(C)C)NC(=O)[C@@H](C)N(C)C(=O)[C@H](Cc2ccccc2)NC(=O)[C@@H](CC(C)C)N(C)C(=O)[C@@H]2CCCN2C1=O
1.8 | CC(C)C[C@@H]1C(=O)N(C)[C@@H](CC(C)C)C(=O)N2CCC[C@H]2C(=O)N(C)[C@@H](CC(C)C)C(=O)N[C@@H](Cc2ccccc2)C(=O)N2CCC[C@H]2C(=O)N[C@H](C)C(=O)N1C
1.8 | CC(C)C[C@@H]1C(=O)N2CCC[C@@H]2C(=O)N(C)[C@@H](CC(C)C)C(=O)N[C@@H](Cc2ccccc2)C(=O)N2CCC[C@@H]2C(=O)N[C@H](C)C(=O)N(C)[C@@H](CC(C)C)C(=O)N1C
4.9 | CC(C)C[C@@H]1NC(=O)C[C@H](Cc2ccccc2)NC(=O)[C@H]2CCCN2C(=O)[C@H](Cc2ccccc2)NC(=O)[C@H](CC(C)C)N(C)C(=O)[C@H]2CCCN2C(=O)[C@H](CC(C)C)NC1=O
0.63 | CC(C)C[C@@H]1C(=O)N2CCC[C@@H]2C(=O)N(Cc2ccccc2)CC(=O)N[C@@H](Cc2ccccc2)C(=O)N2CCC[C@@H]2C(=O)N(C)[C@H](C)C(=O)N(C)[C@@H](CC(C)C)C(=O)N1C
0.52 | CC(C)C[C@@H]1C(=O)N[C@@H](Cc2ccccc2)CC(=O)N2CCC[C@H]2C(=O)N(C)[C@H](CC(C)C)C(=O)N[C@@H](Cc2ccccc2)C(=O)N[C@@H](C)C(=O)N1C
3.9 | CC(C)C[C@@H]1NC(=O)[C@H](C)NC(=O)[C@H](Cc2ccccc2)NC(=O)[C@@H](CC(C)C)N(C)C(=O)[C@H]2CCCN2C(=O)[C@H](CC(C)C)N(C)C1=O
2.1 | CC(C)C[C@@H]1NC(=O)[C@@H](C)N(C)C(=O)[C@@H]2CCCN2C(=O)[C@H](Cc2ccccc2)NC(=O)[C@@H](CC(C)C)N(C)C(=O)[C@@H]2CCCN2C(=O)[C@@H](CC(C)C)N(C)C1=O
3.5 | CC(C)C[C@@H]1C(=O)N[C@@H](Cc2ccccc2)C(=O)N2CCC[C@H]2C(=O)N[C@@H](Cc2ccccc2)CC(=O)N(Cc2ccccc2)CC(=O)N[C@H](CC(C)C)C(=O)N2CCC[C@@H]2C(=O)N1C
0.62 | CCCN1CC(=O)N[C@@H](CC(C)C)C(=O)N[C@H](CC(C)C)C(=O)N2CCC[C@H]2C(=O)N[C@H](CC(C)C)C(=O)N[C@@H](Cc2ccccc2)C(=O)N2CCC[C@@H]2C1=O

A selection of 2 entries from above:

SMILES | PAMPA (10^-6 cm/s)
CC(C)C[C@@H]1C(=O)N[C@@H](Cc2ccccc2)CC(=O)N2CCC[C@H]2C(=O)N(C)[C@H](CC(C)C)C(=O)N[C@@H](Cc2ccccc2)C(=O)N[C@@H](C)C(=O)N1C | 0.52
CC(C)C[C@@H]1NC(=O)C[C@H](Cc2ccccc2)NC(=O)[C@H]2CCCN2C(=O)[C@H](Cc2ccccc2)NC(=O)[C@H](CC(C)C)N(C)C(=O)[C@H]2CCCN2C(=O)[C@H](CC(C)C)NC1=O | 4.9

Collected by the curators of CycPeptMPDB (Li et al. 2023) from Townsend et al. 2020, doi:10.26434/chemrxiv.13335941.v1.